An excerpt weighted towards active compounds, which were near 1.2% of everything screened.
Arrestin-AP2 inh: inhibitors of human beta-arrestin and AP2 interaction | FITC-arrestin peptide / GST-AP2 beads, flow cytometry; AP2 beta2 appendage carries R879A mutation | inhibition, % at 10 µM | hit rate 0.31% among 340,000 | AID 504490;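 active = inhibition above a set limit, near 3 SD of compounds lacking own fluorescence, cut at about 54% in these data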;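 also: plate controls were DMSO wells for no effect and 5 µM unlabelled arrestin peptide for full effect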
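System: GST-AP2 R879A glutathione beads; medium: PBS, Tween 20 0.05%, BSA 0.1%; reagent: fluorescein-tagged arrestin peptide at 50 nM final; schedule: pre-incubation 12 min, peptide binding 1 h, room temperature; detection: flow cytometry, FL1 (488/535 nm); read-out: inhibition as reduced fluorescein signal on beads, percent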
TbMetRS inhib: Trypanosoma brucei MetRS inhibition. purified T. brucei MetRS, ATP depletion, Kinase-Glo luminescence. inhibition, % at 11.9 µM. hit rate 0.4% among 360,000. AID 624268;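 active = inhibition above a per-plate cutoff of the control wells' mean inhibition plus 3 SD, cut at about 5.5% in these data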;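 also: 0% = DMSO wells median and 100% = median of wells with control inhibitor compound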
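Measured by: Kinase-Glo luciferase luminescence reporting remaining unconsumed ATP. Material: purified T. brucei MetRS enzyme. Doses: 11.9 µM compound single dose, 0.9% DMSO. Medium: HEPES buffer containing pyrophosphatase, BSA, spermine, DTT. Times: 15 min preincubation, 2 h reaction, all 25 °C. Reagent: methionine, ATP and bulk E. coli tRNA.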
Rce1 inh: yeast Ras-converting enzyme inhibition; Q03530; yeast membranes, quenched prenylated peptide cleavage fluorescence; calls only; hit rate 0.27% among 290,000; AID 2563;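 active = fall in fluorescence gain of 50% or more versus controls, with final raw signal at or below 3038400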;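 also: plate controls were neutral control wells for no effect and wells lacking membranes for full effect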
Yeast UUG start: alters start codon recognition fidelity in yeast. S. cerevisiae UUG-firefly luciferase reporter, luminescence/redox ratio. 350,000 tested, 0.13% active. activity score, % at 18.7 µM. AID 602363;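 active means replicate mean at a twofold rise or more, about +100% in these data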;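 further: firefly luciferase made from a UUG start codon reports start codon fidelity; reporter light over untreated wells divided by growth signal over untreated wells; some hits fall short of that in this replicate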
Pemphigus Ab inh: blocks pemphigus antibody binding to human desmoglein-3; DSG3-coupled beads, scFv-anti-DSG3-GFP binding, flow cytometry; active compounds read low; binding (percent of control), % at 10 µM; hit rate 0.48% among 310,000;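 active = binding more than 3 SD below its plate's average and above zero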;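 also: hits lower antibody fragment binding to DSG3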
Tb MetRS conf: Trypanosoma brucei MetRS inhibition confirmed | shares compounds with TbMetRS inhib | inhibition, % at 11.9 µM | hit rate 93% among 1,400 | T. brucei MetRS enzyme, luminescence (ATP depletion); in the data active = inhibition above about 7%
Jurkat cytotox: kills Jurkat cells in T. brucei MetRS counterscreen | AID 624413 | Jurkat cells viability, ATP luminescence | hit rate 12% among 1,400 | shares compounds with TbMetRS inhib | inhibition, % at 8.3 µM; in the data active = inhibition above about 15%;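 also: 0% = vehicle and 100% = reference inhibitor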
Tb MetRS inh FP: orthogonal test for Trypanosoma brucei MetRS inhibitors. shares compounds with TbMetRS inhib. inhibition, % at 11.9 µM. hit rate 44% among 1,400. purified T. brucei MetRS, fluorescence polarization; in the data active = inhibition above about 17%;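 also: 0% = vehicle wells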
* = called active by the depositor; i = inactive; nt = no result given.

1: O=C(C[C@@H]1C[C@@H]2c3cc(NC(=O)NC4CCCC4)ccc3O[C@@H]2[C@H](CO)O1)NC1CCCC1
2: C[C@@H]1CN([C@@H](C)CO)C(=O)c2cc(C#CC3CCCCC3)cnc2O[C@H]1CN(C)Cc1cccnc1
3: Cc1ccc(NC(=O)/C=N/OCC(=O)NCc2ccccc2Cl)cc1
4: Cc1cc(C)cc(N(CC(=O)Nc2cc(C)ccc2C)S(=O)(=O)c2c(C)[nH]c(=O)[nH]c2=O)c1
5: Cc1cc(C)cc(N(CC(=O)Nc2ccc(Br)cc2)S(=O)(=O)c2c(C)[nH]c(=O)[nH]c2=O)c1
entry no.	1	2	3	4	5
Arrestin-AP2 inh	nt	nt	-17	2	3
TbMetRS inhib	nt	nt	16*	0	49*
Rce1 inh	nt	nt	i	i	i
Yeast UUG start	-10	1	-13	-12	10
Pemphigus Ab inh	nt	nt	100	101	102
Tb MetRS conf	nt	nt	29*	nt	76*
Jurkat cytotox	nt	nt	-11	nt	-1
Tb MetRS inh FP	nt	nt	12	nt	45*

Marked active in Tb MetRS conf, of those listed so far:
No. | canonical_smiles | Arrestin-AP2 inh | TbMetRS inhib | Rce1 inh | Yeast UUG start | Pemphigus Ab inh | Tb MetRS conf | Tb MetRS inh FP
3 | Cc1ccc(NC(=O)/C=N/OCC(=O)NCc2ccccc2Cl)cc1 | -17 | 16* | i | -13 | 100 | 29* | 12
5 | Cc1cc(C)cc(N(CC(=O)Nc2ccc(Br)cc2)S(=O)(=O)c2c(C)[nH]c(=O)[nH]c2=O)c1 | 3 | 49* | i | 10 | 102 | 76* | 45*

(more compounds)
6: COP(=O)(OC)C(Nc1cc(Cl)cc(Cl)c1)c1cccc(O)c1 (stereo not given)
7: Cc1nn(C(=O)CNC(=O)c2ccccc2)c(C)c1C
8: Cc1nn(C(=O)c2cc3sccc3[nH]2)c(C)c1C
9: O=C(Cc1ccc(Br)cc1)NNC(=O)Nc1ccc(Cl)cc1
10: Cn1cccc1CC(=O)NNC(=O)Nc1ccc(Cl)cc1
entry no.	6	7	8	9	10
Arrestin-AP2 inh	29	11	4	20	-3
TbMetRS inhib	5.7*	0	9.2*	17*	0
Rce1 inh	i	i	i	i	i
Yeast UUG start	nt	nt	-6	-20	nt
Pemphigus Ab inh	84	110	95	93	101
Tb MetRS conf	15*	nt	17*	24*	nt
Jurkat cytotox	-1	nt	-7	5	nt
Tb MetRS inh FP	4	nt	6	17*	nt

11: O=C(Cc1ccc(Cl)cc1)Nc1ccc(Br)cc1
12: CC1(C)C2CCC1(CS(=O)(=O)NCc1ccc(Cl)cc1Cl)C(=O)C2 (stereo not given)
13: COc1cccc(NS(=O)(=O)CC23CCC(CC2=O)C3(C)C)c1 (stereo not given)
14: Cc1cccc(NC(=O)Cn2cc(C=O)c3ccccc32)c1
15: CCOC(=O)c1cccc(NC(=O)Cn2c(CC(=O)NC)nc3ccccc32)c1
entry no.	11	12	13	14	15
Arrestin-AP2 inh	1	14	9	24	-5
TbMetRS inhib	6.1*	7.6*	-1	1	79*
Rce1 inh	i	i	i	i	i
Yeast UUG start	-14	3	6	-12	-1
Pemphigus Ab inh	105	102	88	95	102
Tb MetRS conf	11*	21*	nt	nt	88*
Jurkat cytotox	5	-1	nt	nt	5
Tb MetRS inh FP	6	4	nt	nt	71*

16: Cc1cccc(NC(=O)Cn2c(/C=C/c3ccccc3)nc3ccccc32)c1
17: Cc1nc2ccccc2n(CC(=O)Nc2cc(Cl)cc(Cl)c2)c1=O
18: Cc1ccc(NC(=O)Cn2c(=O)c(C)nc3ccccc32)cc1
19: CCC(=O)Nc1ccc2c(c1)C(=O)N(C)C[C@@H](OC)[C@H](C)CN(CCc1ccccc1)[C@@H](C)CO2
20: CN(CC(=O)Nc1ccc(F)c(F)c1F)C(=O)c1ccc2c(c1)NC(=O)CS2
entry no.	16	17	18	19	20
Arrestin-AP2 inh	14	-7	34	nt	-13
TbMetRS inhib	10*	5.8*	-1	nt	0
Rce1 inh	i	i	i	nt	nt
Yeast UUG start	nt	nt	nt	-13	nt
Pemphigus Ab inh	99	88	113	nt	104
Tb MetRS conf	19*	11*	nt	nt	nt
Jurkat cytotox	0	-4	nt	nt	nt
Tb MetRS inh FP	10	7	nt	nt	nt

21: CN(CC(=O)Nc1ccc(Cl)c(C(F)(F)F)c1)C(=O)c1ccc2c(c1)NC(=O)CS2
22: COc1cccc(NC(=O)C(=O)NCc2ccncc2)c1
23: COc1cccc(NC(=O)C(C#N)Cc2ccncc2)c1 (stereo not given)
24: O=C(C[C@@H]1CC[C@H](NC(=O)Nc2ccc(F)cc2)[C@@H](CO)O1)NCc1ccccn1
25: C[C@@H]1CCCCO[C@@H](CN(C)C(=O)Nc2ccc(F)cc2)[C@@H](C)CN([C@H](C)CO)C(=O)c2cc(NC(=O)CCC(F)(F)F)ccc2O1
26: O=C1C(Nc2ccc(O)cc2)=C/C(=N/S(=O)(=O)c2cccs2)c2ccccc21
entry no.	21	22	23	24	25	26
Arrestin-AP2 inh	-6	2	3	nt	nt	1
TbMetRS inhib	6.6*	0	16*	nt	nt	6.2*
Rce1 inh	nt	nt	i	nt	nt	i
Yeast UUG start	-9	-6	5	-10	-1	nt
Pemphigus Ab inh	110	96	108	nt	nt	101
Tb MetRS conf	17*	nt	1	nt	nt	9.8*
Jurkat cytotox	-4	nt	3	nt	nt	94*
Tb MetRS inh FP	8	nt	3	nt	nt	10

Bioassay records: PubChem, several laboratories
